From patent US20190100761A1, “COMPOSITIONS AND METHODS FOR ENHANCED GENE EXPRESSION AND VIRAL REPLICATION” (priority 2016, published 2019)

Assays:
[1] = system: AAV vector encoding luciferase; format: cell-based, Adeno Associated Virus
AAV vector encoding GFP = experiment: AAV GFP vector packaged in 293T cells overexpressing YTHDF2, GFP by FACS; format: cell-based, Adeno Associated Virus; details: dilutions 1:2 to 1:2000, naive 293T cells, vs AAV from wildtype 293T
Excerpt: An AAV vector encoding GFP was packaged in wildtype 293T cells or in a clonal 293T cell line overexpressing YTHDF2. Viral particles were isolated after cell lysis by sucrose gradient centrifugation and dilutions (1:2, 1:20, 1:200 and 1:2000) used to infect naive 293T cells and GFP expression then analyzed by FACS. Brown: negative control 293T cells, Blue: AAV derived from wildtype 293T Red: AAV derived from YTHDF2 overexpressing 293T cells.

YTHDF2: human cytoplasmic m^6A reader protein, SEQ ID NO: 5, overexpressed in cells
enhancement of AAV vector production ([1]; 293T cells expressing YTHDF2 compared to wild type cells): ≥ 5 fold
Luciferase Expression ([1]; virus dilution 1:2): 26,610,600
Fold Increase ([1]; virus dilution 1:2, vs CTRL packaging cells): 4.5x
Luciferase Expression ([1]; virus dilution 1:20): 6,727,420
Fold Increase ([1]; virus dilution 1:20, vs CTRL packaging cells): 4.0x
Luciferase Expression ([1]; virus dilution 1:200): 1,186,033
Fold Increase ([1]; virus dilution 1:200, vs CTRL packaging cells): 4.5x
Luciferase Expression ([1]; virus dilution 1:2,000): 98,886
Fold Increase ([1]; virus dilution 1:2,000, vs CTRL packaging cells): 4.9x
Luciferase Expression ([1]; virus dilution 1:20,000): 8,303
Fold Increase ([1]; virus dilution 1:20,000, vs CTRL packaging cells): 4.1x
Luciferase Expression ([1]; virus dilution 1:200,000): 972
Fold Increase ([1]; virus dilution 1:200,000, vs CTRL packaging cells): 5.1x
GFP expressing cells after infection with AAV virions (AAV vector encoding GFP): higher levels of GFP expressing cells

Read-outs that look alike come from different tables or passages of the source.
